Data on 1 molecule can be found in ChEMBL document CHEMBL1134019, “Structure determination and comparison of BM567, a sulfonylurea, with terbogrel, two compounds with dual action, thromboxane receptor antagonism and thromboxane synthase inhibition” (Bioorg Med Chem Lett, 2001).

The target of this assay is T1, Thromboxane-A synthase (Homo sapiens, UniProt P24557).
T1 sequence (P24557 whole entry): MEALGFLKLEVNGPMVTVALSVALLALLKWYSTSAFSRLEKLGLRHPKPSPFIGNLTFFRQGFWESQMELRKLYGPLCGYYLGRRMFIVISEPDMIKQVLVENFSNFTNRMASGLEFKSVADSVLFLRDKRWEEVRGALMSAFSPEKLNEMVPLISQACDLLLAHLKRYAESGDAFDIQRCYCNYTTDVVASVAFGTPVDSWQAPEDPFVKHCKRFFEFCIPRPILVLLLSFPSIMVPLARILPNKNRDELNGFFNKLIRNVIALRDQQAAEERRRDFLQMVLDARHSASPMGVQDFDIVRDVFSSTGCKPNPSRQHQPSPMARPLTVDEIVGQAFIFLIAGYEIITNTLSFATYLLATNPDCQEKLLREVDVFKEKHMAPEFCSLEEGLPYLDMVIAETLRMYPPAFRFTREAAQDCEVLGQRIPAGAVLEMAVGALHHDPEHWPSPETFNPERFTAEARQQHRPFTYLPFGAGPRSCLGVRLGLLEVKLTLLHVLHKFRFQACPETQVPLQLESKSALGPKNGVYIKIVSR
In words: In vitro inhibitory concentration of compound against thromboxane A2 synthase.

The structures appear in SMILES notation. pIC50: −log10 of the molar value.

Turning to `CC(C)(C)/N=C(\NC#N)Nc1cccc(/C(=C/CCCC(=O)O)c2cccnc2)c1`, the pIC50 is 8.40.
